# What was measured:
# [1] = DLS hydrodynamic diameter of BSA conjugated copolymer (Example 2); format: physicochemical
# Procedure: ^1H-NMR spectra were acquired to characterised compounds using CDCl3 or d-DMSO with a 300 MHz spectrometer. Thermogravimetric analysis (TGA) was carried out using TG5000 to quantify the amount of platinum conjugated to the copolymers. The sample (≤5 mg) was placed on a thermo-balance and heated from room temperature to 600° C. at 20° C./min, and held for an isothermal period of 60 minutes under nitrogen atmosphere. Diameter size of copolymers in 0.1M PBS buffer pH 7.0 was measured using a Malvern dynamic light scattering instrument (DLS) in a disposable plastic cuvette (1 cm path length). Fluorescence measurements were performed on Agilent Cary Eclipse Fluorescence Spectrometer using a 1 cm quartz cuvette. Fluorescence spectra were recorded between 400-800 nm at λex=495 nm, λem=520 nm with entrance and exit slit width of […]. SDS-PAGE was performed using standard techniques using a premixed electrophoresis buffer which contains 25 mM Tris, 192 mM glycine and 0.1% SDS (Tris/Glycine/SDS buffer) to determine the conjugation efficiency between the BSA-FITC and the copolymer. Samples were prepared for electrophoresis without the use of a reducing agent. The samples were mixed with bromophenol blue (0.01% w/v) solution as the marker. […] Gel images were recorded using a Bio-Rad GS-800 calibrated densitometer. […]
# [2] = Hydrodynamic diameter and zeta potential of materials and complexes (Example 3); format: physicochemical
# Procedure: Solutions of albumin-PDMAEMA conjugates with required albumin to PDMAEMA ratios were prepared. The resulting conjugates were dialysed in 0.05 M PBS (pH5) for 12 h by changing solvent every 2 h. […] All the conditions were kept consistent to the corresponding oligonucleotide samples. In addition, the oligonucleotide transfection efficiency of the PEGMEMA-PDMAEAM cationic block copolymer was investigated. The same protocol was adopted to make the polyion complex micelles from this polymer solution.
# The condensation of the oligonucleotide was therefore carried out when the conjugate solution was at pH5 and the oligonucleotide was dissolved in MilliQ water. The albumin-polymer conjugates with a pH of 5 was then slowly added to the solutions of ISIS 5132 with the concentration of 200 μg/ml (ζ=−29.87 mV at pH7). […] If using the conjugates with higher ratios of BSA to polymer, the particle size of the polyion complex micelle was seen to increase dramatically due to the natural aggregation of albumin. After the complex micelle was stable, the system was brought back to pH7. There are several reasons for this: to reduce the aggregation of the micelle, to protect the oligonucleotide and to keep the neutral environment for cells in the afterward cytotoxicity assays.
# [3] = pH 7, ISIS 5132 200 ug/ml, BSA 1 mg/ml, PDMAEMA 0.21 mg/ml
substance,measurement,setting,value
bovine serum albumin [BSA],Dh number (d/nm),"[1]; 0.1M PBS pH 7, 25° C.",9.93 nm
same,PDi,"[1]; 0.1M PBS pH 7, DLS",0.42
same,Dh,"[2]; pH 5, conc. of BSA 1 mg/ml",6.28 nm
same,Zeta potential,"[2]; pH 5, conc. of BSA 1 mg/ml",−2.53 mV
same,Dh,[2]; [3],5.4 nm
same,Zeta potential,[2]; [3],−5.64 mV

# From US10251958B2, “Nanoparticles for drug delivery comprising albumin having a polymer chain coupled thereto” (NEWSOUTH INNOVATIONS PTY LIMITED, priority 2013, dated 2019)
